# Data reported in publication PMC8878264.
# Test system: Nc1ncnc2c1ncn2[C@@H]1O[C@H](COP(=O)(O)OP(=O)(O)OP(=O)(O)O)[C@@H](O)[C@H]1O
# Test: purified protein
# Conditions: 50 mM Tris-HCl pH 9.0, 120 mM NaCl, 5 mM KCl, 50 mM glucose, 2 mM CaCl2, 0-3.0 mM ATP, products AMP and PPi
substance,measurement,value
rSmNPP5 (recombinant SmNPP5) (Schistosoma mansoni),Km,217 ± 26 µM
